Values quoted from earlier work, collected in PMC7730073.

What was measured:
[1] = biological target: Retinol-binding protein (Homo sapiens) (UniProt P02753)
[2] = biological target: Metallothionein-3 (Homo sapiens) (UniProt P25713)

- Kd [1]: 800 nM
- Kd [2]: 374 nM
Substance: Transthyretin (from UniProt P02766)
